Data set [1] can be described thus: Hydroscopicity comparison (moisture absorption, 25° C. and 80% humidity, 24 hours). The format is physicochemical. Here is the method: (§1) Voriconazole phosphate anhydrate and Voriconazole phosphate hydrate were prepared using different methods, and placed under conditions of 25° C. and 80% humidity for 24 hours, and then the weight increase due to moisture absorption was determined.

Data set [2] is classed as physicochemical. The procedure:
as §1
Sample injection was carried out by using a sample prepared by allowing the sample in Example 17 to absorb moisture, and the results are shown in Table 5.

Take Voriconazole phosphate anhydrate: in data set [1], the “Weight increase by moisture absorption, by weight” value was 17.5%. Besides, in data set [2] (24 hour moisture absorption), the “Individual impurity, by weight” value is “Individual impurity 0.30%” and the “Total impurity, by weight” value is reported as “Total impurity 0.37%”. The “change in impurity after absorbing moisture (in words)” value in data set [2] (24 hours) was “more than one time of increase in impurities”.

The record behind these values is US9650400B2, “Voriconazole sodium phosphate hydrates and polymorphs thereof” (SHAANXI SYNTHETIC PHARMACEUTICAL CO., LTD., priority 2013, dated 2017).
